Measured values as given in ChEMBL document CHEMBL1145967, “Design, synthesis, and biological activities of classical N-[4-[2-(2-amino-4-ethylpyrrolo[2,3-d]pyrimidin-5-yl)ethyl]benzoyl]-l-glutamic acid and its 6-methyl derivative as potential dual inhibitors of thymidylate synthase and dihydrofolate reductase and as potential antitumor agents” (J Med Chem, 2003).

By UniProt entry, the sequences of proteins in these tests, tags left out.
UniProt C3SWJ7, whole entry: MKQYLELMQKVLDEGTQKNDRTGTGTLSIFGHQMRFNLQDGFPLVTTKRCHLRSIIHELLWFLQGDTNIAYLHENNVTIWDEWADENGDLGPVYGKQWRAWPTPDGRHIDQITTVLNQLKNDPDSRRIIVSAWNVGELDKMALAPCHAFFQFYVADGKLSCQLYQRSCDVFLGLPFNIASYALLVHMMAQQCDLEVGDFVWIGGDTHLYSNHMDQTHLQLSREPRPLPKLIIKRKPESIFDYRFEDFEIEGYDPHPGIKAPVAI

Molecular target: Thymidylate synthase (Escherichia coli, UniProt C3SWJ7)
Assay: Compound was evaluated as inhibitor of Escherichia coli thymidylate synthase

CCc1[nH]c(N)nc2nc(C)c(CCc3ccc(C(=O)N[C@@H](CCC(=O)O)C(=O)O)cc3)c1-2 showed an IC50 of 18 µM.
